Measured values taken from publication PMC10495264 (Nature Cell Biology, 2023).

Test system: TORC1-pathway genes
Conditions: cells cultured on the compound versus untreated libraries; re-analysis of published datasets ref 24, 25

SMILES	transposon events in TORC1-pathway genes (SATAY)
C/C=C/C/C=C/CCC(=O)[C@H]1O[C@H]1C(N)=O [cerulenin]	under-represented
CO[C@H]1C[C@@H]2CC[C@@H](C)[C@@](O)(O2)C(=O)C(=O)N2CCCC[C@H]2C(=O)O[C@H]([C@H](C)C[C@@H]2CC[C@@H](O)[C@H](OC)C2)CC(=O)[C@H](C)/C=C(\C)[C@@H](O)[C@@H](OC)C(=O)[C@H](C)C[C@H](C)/C=C/C=C/C=C/1C [rapamycin]	under-represented
CO[C@H]1CCCC[C@@H](c2ccccc2)OC(=O)[C@@H](C)[C@@]2(O)O[C@H]([C@@H](C)[C@H](O)[C@H]2OC)[C@@H](C)/C=C/[C@H]1OC [soraphen A]	over-represented
